Reference: PubChem BioAssay (NCI)
This is a selection; strong and weak results do not stand in their true shares.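 Step 1: grow cells in 96-well plates. Step 2: add test compound at a single concentration. Step 3: incubate 48 h. Step 4: record percent growth.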 Activity calls are given as the source filed them. How the source made its calls: active means growth percent below 10; inactive means the rest.

Columns and labels:
Experiment in all cases: NCI-60 one-dose screen, 48 h (100 = growth as untreated, 0 = no growth, -100 = all killed)
[1] = test system: DU-145 prostate; conditions: 10 µM unless noted
[2] = test system: K-562 leukemia; conditions: 10 µM unless noted
[3] = test system: MALME-3M melanoma; conditions: 10 µM unless noted
[4] = test system: MDA-MB-231 breast; conditions: 10 µM unless noted
[5] = test system: RXF 393 renal; conditions: 10 µM unless noted
[6] = test system: SF-268 CNS; conditions: 10 µM unless noted
[7] = test system: SF-539 CNS; conditions: 10 µM unless noted
[8] = test system: UACC-257 melanoma; conditions: 10 µM unless noted
[9] = test system: M14 melanoma; conditions: 10 µM unless noted
[10] = test system: HCT-15 colon; conditions: 10 µM unless noted
[11] = test system: HT29 colon; conditions: 10 µM unless noted
[12] = test system: SNB-75 CNS; conditions: 10 µM unless noted
[13] = test system: SNB-19 CNS; conditions: 10 µM unless noted
[14] = test system: U251 CNS; conditions: 10 µM unless noted
[15] = test system: PC-3 prostate; conditions: 10 µM unless noted
[16] = test system: SK-MEL-5 melanoma; conditions: 10 µM unless noted
[17] = test system: UACC-62 melanoma; conditions: 10 µM unless noted
[18] = test system: LOX IMVI melanoma; conditions: 10 µM
[19] = test system: SK-MEL-28 melanoma; conditions: 10 µM unless noted
[20] = test system: SF-295 CNS; conditions: 10 µM unless noted

Measured: growth

O=C(OCCNCCCl)c1ccccc1
inactive: [1] 114% | [2] 106% | [3] 101% | [4] 114% | [5] 114% | [6] 113% | [7] 101% | [8] 97.7% | [9] 102% | [10] 101% | [11] 111% | [12] 82.7% | [13] 105% | [14] 104% | [15] 99.5% | [16] 105% | [17] 106% | [18] 98.6% | [19] 102%

CSc1ccc(Nc2c([N+](=O)[O-])cc([N+](=O)[O-])cc2[N+](=O)[O-])cc1
inactive: [1] 92.3% | [2] 26.2% | [3] 82.5% | [4] 66.6% | [5] 64.9% | [6] 50.7% | [7] 86.8% | [8] 47% | [9] 99.3% | [10] 31.6% | [11] 26.8% | [12] 81.7% | [13] 67.2% | [14] 22.4% | [15] 36.8% | [16] 83.2% | [17] 44.5% | [18] 51.4% | [19] 91%

NC1=NCC(Br)CS1 (stereo not drawn)
inactive: [1] 100% | [2] 99% | [3] 102% | [4] 92.8% | [5] 109% | [6] 108% | [20] 102% | [7] 111% | [9] 92.6% | [10] 98.4% | [11] 111% | [12] 75.7% | [13] 105% | [14] 96.5% | [15] 95.6% | [16] 99.6% | [17] 93.7% | [18] 90.6% | [19] 103%

CN(C)C(=O)NP(=O)(N(C)C)N(C)C
inactive: [1] 107% | [2] 95.8% | [3] 96.6% | [4] 101% | [5] 105% | [6] 104% | [20] 103% | [7] 97.4% | [9] 110% | [10] 98% | [11] 110% | [12] 101% | [13] 108% | [14] 100% | [15] 98.5% | [16] 109% | [17] 104% | [18] 93.8% | [19] 109%

CC1(C)NC(C)(C)C(Br)C(=O)C1Br (stereo not drawn)
inactive: [1] 117% | [2] 95.2% | [3] 139% | [4] 116% | [5] 134% | [6] 111% | [20] 109% | [7] 101% | [8] 96.2% | [9] 105% | [10] 111% | [12] 106% | [13] 104% | [14] 106% | [15] 99.2% | [16] 109% | [17] 115% | [18] 95.8% | [19] 115%

O=C(c1ccc(F)cc1)N(CCCl)CCCl
inactive: [1] 109% | [2] 114% | [3] 106% | [4] 110% | [5] 91.7% | [6] 106% | [7] 95.8% | [8] 95% | [9] 110% | [10] 103% | [11] 98.3% | [12] 84% | [13] 101% | [14] 101% | [15] 95.6% | [16] 96.8% | [17] 104% | [18] 104% | [19] 102%

COc1ccc(C(=O)N(CCCl)CCCl)cc1OC
inactive: [1] 118% | [2] 87.5% | [3] 114% | [4] 124% | [5] 117% | [6] 109% | [7] 95% | [8] 106% | [9] 104% | [10] 96.6% | [11] 91.5% | [12] 91% | [13] 109% | [14] 106% | [15] 102% | [16] 107% | [17] 108% | [18] 101% | [19] 114%

CC(/C=N/N=C(\N)N[N+](=O)[O-])=N\N=C(/N)N[N+](=O)[O-]
inactive: [1] 117% | [2] 116% | [3] 109% | [4] 105% | [5] 95% | [6] 114% | [7] 95.3% | [8] 95.6% | [9] 102% | [10] 94.7% | [11] 116% | [12] 85.7% | [13] 97.9% | [14] 99.4% | [15] 101% | [16] 103% | [17] 102% | [18] 110% | [19] 105%

Cc1ccc(SP(=O)(CCl)N(CCCl)CCCl)cc1 (stereo not drawn)
inactive: [1] 109% | [2] 103% | [3] 107% | [4] 105% | [5] 94.3% | [6] 101% | [7] 96.3% | [8] 94.4% | [9] 105% | [10] 95% | [11] 88.1% | [12] 80.8% | [13] 97.9% | [14] 94.4% | [15] 85% | [16] 98.6% | [17] 97.5% | [18] 102% | [19] 104%

Cc1ccccc1C(=O)N(CCCl)CCCl
inactive: [1] 125% | [2] 100% | [3] 101% | [4] 112% | [5] 89.4% | [6] 111% | [7] 100% | [8] 99.6% | [9] 107% | [10] 93% | [11] 107% | [12] 78.4% | [13] 107% | [14] 104% | [15] 92.6% | [16] 98.2% | [17] 105% | [18] 104% | [19] 102%

O=C(O)CCc1ccc(N(CCCl)CCCl)cc1
inactive: [1] 103% | [2] 105% | [3] 101% | [4] 112% | [5] 109% | [20] 101% | [7] 87.2% | [8] 103% | [9] 103% | [10] 96% | [11] 103% | [12] 89% | [13] 108% | [14] 90.2% | [15] 88% | [16] 92.6% | [17] 86% | [18] 88.6% | [19] 108%

OC(CNCCCl)C(O)C(O)C(O)CNCCCl (stereo not drawn)
inactive: [1] 99.7% | [2] 98.9% | [3] 93.1% | [4] 101% | [5] 97.4% | [6] 103% | [7] 92.2% | [8] 93.7% | [9] 93.2% | [10] 98% | [11] 101% | [12] 90.2% | [13] 104% | [15] 94.1% | [17] 99.3% | [18] 91.2% | [19] 108%

O=P1(N(CCCl)CCCl)Nc2ccccc2N1
inactive: [1] 112% | [2] 107% | [3] 109% | [4] 107% | [5] 111% | [6] 108% | [20] 124% | [8] 112% | [9] 119% | [10] 123% | [11] 119% | [12] 88.8% | [13] 112% | [14] 106% | [15] 106% | [16] 107% | [17] 112% | [18] 108% | [19] 116%

CC(=O)NC(C)C(=O)N(CC(C)Cl)CC(C)Cl (stereo not drawn)
inactive: [1] 107% | [2] 99.5% | [3] 101% | [4] 103% | [5] 101% | [6] 103% | [7] 92.4% | [8] 88.3% | [9] 102% | [10] 94.9% | [11] 100% | [12] 86.3% | [13] 101% | [14] 92.4% | [15] 89.4% | [16] 94.3% | [17] 103% | [18] 98.2% | [19] 103%

Cc1cc(C)cc(OP(=O)(Cl)Oc2cc(C)cc(C)c2)c1
inactive: [1] 119% | [2] 99.1% | [3] 105% | [4] 104% | [5] 118% | [6] 113% | [20] 101% | [7] 110% | [8] 83.5% | [10] 105% | [11] 110% | [12] 110% | [13] 106% | [14] 95.3% | [15] 112% | [16] 109% | [17] 102% | [18] 103% | [19] 124%

O=C(O)COc1ccc([As](=O)(O)O)cc1[N+](=O)[O-]
inactive: [1] 118% | [2] 108% | [3] 108% | [4] 107% | [5] 111% | [6] 109% | [20] 113% | [7] 99.4% | [8] 99.1% | [10] 107% | [11] 95.9% | [12] 80.4% | [13] 104% | [14] 103% | [16] 103% | [17] 106% | [18] 95.7% | [19] 100%

CCOC(=O)c1sc2ncnc(NCCCl)c2c1C
inactive: [1] 104% | [2] 101% | [3] 114% | [4] 90.3% | [5] 103% | [6] 97.7% | [7] 94.9% | [8] 116% | [9] 115% | [10] 102% | [11] 108% | [13] 94.8% | [14] 93.3% | [15] 84.4% | [16] 97.3% | [17] 93.5% | [18] 92% | [19] 118%

Cn1c(=O)c2[nH]c(N(CCCl)CCCl)nc2n(C)c1=O
inactive: [1] 106% | [2] 104% | [3] 96.3% | [4] 112% | [5] 99.6% | [6] 104% | [7] 107% | [8] 116% | [9] 109% | [10] 97.3% | [11] 94.8% | [12] 76.9% | [13] 116% | [14] 102% | [15] 94% | [16] 102% | [17] 104% | [18] 96.4% | [19] 109%
